This test addresses T1, Histone acetyltransferase KAT8 (Homo sapiens, UniProt Q9H7Z6).
T1 sequence (Q9H7Z6 whole entry): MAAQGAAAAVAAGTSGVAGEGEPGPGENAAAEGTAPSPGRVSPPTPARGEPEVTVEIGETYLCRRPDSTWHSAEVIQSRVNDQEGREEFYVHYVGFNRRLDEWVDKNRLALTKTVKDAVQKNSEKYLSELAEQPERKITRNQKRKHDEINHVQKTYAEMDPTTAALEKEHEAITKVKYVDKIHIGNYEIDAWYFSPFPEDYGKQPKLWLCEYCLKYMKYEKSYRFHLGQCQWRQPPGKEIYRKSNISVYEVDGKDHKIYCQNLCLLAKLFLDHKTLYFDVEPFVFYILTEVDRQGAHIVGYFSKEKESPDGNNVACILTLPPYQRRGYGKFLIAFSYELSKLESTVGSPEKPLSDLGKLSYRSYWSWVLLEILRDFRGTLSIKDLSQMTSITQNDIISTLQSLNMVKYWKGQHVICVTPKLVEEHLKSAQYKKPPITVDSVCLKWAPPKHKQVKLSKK
Nature of the test: Inhibition of recombinant N-terminal His6-tagged KAT8 (unknown origin) expressed in Escherichia Coli BL21 DE3 cells assessed as reduction of Co A level using histone H4 substrate after 15 mins by CPM fluorescence assay.

SMILES strings stand for the structures. pIC50: −log10 of the molar value.

Usually pIC50 stands for −log10 of the IC50, conventionally taken in molar units.

Turning to `CCCCCCCCCCCCCCCc1cccc(O)c1C(=O)O` [2-Hydroxy-6-pentadecyl-benzoic acid], the pIC50 is 3.67.
